Values of other authors, collected in patent US20100017370A1, “T CELL EPITOPE DATABASES” (ANTITOPE LIMITED, priority 2006, published 2010).

Details: human, in vivo; cited from earlier work

## humanised anti-HER2 antibody: humanised anti-HER2 antibody known as Herceptin®
  clinical immunogenicity compared to humanised A33: lower level of clinical immunogenicity
